AlphaSeq binding of Ab-14 heavy chain variants to a spike HR2 peptide

Antigen: PDVDLGDISGINAS, a 14-residue peptide of the SARS-CoV-2 spike HR2 region.

Parent: Ab-14, a human scFv built as VH, a (GGGGS)3 linker, VL. Only the CDRs of the heavy chain vary.
VH: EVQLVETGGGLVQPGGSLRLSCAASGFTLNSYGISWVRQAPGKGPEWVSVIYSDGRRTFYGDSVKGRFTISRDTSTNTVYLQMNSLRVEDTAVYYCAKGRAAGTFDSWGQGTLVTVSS
VL: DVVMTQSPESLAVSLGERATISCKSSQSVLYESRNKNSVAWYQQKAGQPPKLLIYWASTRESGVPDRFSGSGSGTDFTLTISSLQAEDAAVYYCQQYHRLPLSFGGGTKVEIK

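Phage display of a naive human antibody library on the peptide gave the parent. In library AAYL49, one, two or three CDR residues were substituted; doubles and triples were drawn at random. The scFvs were displayed on barcoded MATa yeast, the peptide on MATalpha yeast. Pairs that bind mate more often; barcode pairs of the diploids are counted by sequencing. Each replicate has its own calibration line, from reference interactions of the BCL2 family. The assay was run in three technical replicates.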

Positions count from residue 1 of the parent VH; R56E puts E in place of R. Numbers give log10(Kd / nM), so 0 is 1 nM and 3 is 1 µM. Smaller is tighter. A mean of the replicates is given; it leaves out those without a signal. An entry "ND" has no value in the source: the pair was not observed among the diploids in that replicate. This suggests poor binding but is not conclusive. In this assay the parent's reference entry averaged 0.65; its copy inside this library read 4.11 (one replicate of three). Empty control strains, which show no peptide, gave a signal in 15% of pairings with library AAYL49; the median was 4.06 and 95% of these signals were weaker than 2.83. No background was subtracted. Also given: how often the same scFv was detected with the empty control strains, with their mean in brackets.

changes | log10 Kd, replicates | mean, log10 nM | empty controls
R56E/G61W | ND ND ND | ND | 1 of 9 (3.81)
Y52F/D54P | ND ND ND | ND | 0 of 9
S35R/D54Q/R57K | ND ND ND | ND | 0 of 9
G26Q/R56F/G103Q | ND ND ND | ND | 2 of 9 (4.37)
N30W/D54Q/R57D | ND ND ND | ND | 0 of 9
T28E/F105E | ND ND ND | ND | 0 of 9
G26V/F27W/R56S | ND ND 3.93 | 3.93 | 2 of 9 (4.14)
G55E/A101L/T104M | ND ND 3.27 | 3.27 | 1 of 9 (3.59)
S35D/R56A | ND ND ND | ND | 2 of 9 (4.21)
T28V/G103H/S107Q | 1.82 2.00 1.89 | 1.90 | 5 of 9 (3.71)
Y32M/I51V | ND 5.23 3.31 | 4.27 | 4 of 9 (4.09)
V50D/R56L/A102W | ND ND ND | ND | 2 of 9 (3.13)
L29Y/N30D/A102E | ND ND ND | ND | 1 of 9 (3.58)
S63P/V64T/T104E | ND ND 3.64 | 3.64 | 1 of 9 (3.24)
F59Y/G61E/A102W | ND ND ND | ND | 1 of 9 (3.41)
F27L/I34S/F59R | ND ND ND | ND | 0 of 9
S31G/S53Q/R56C | ND ND 3.10 | 3.10 | 0 of 9
Y32H/G99F/D106Q | 2.42 3.13 3.93 | 3.16 | 4 of 9 (3.24)
G99Y/G103S/S107G | ND ND ND | ND | 1 of 9 (3.74)
Y32H/S35Y/R100I | ND ND 5.03 | 5.03 | 1 of 9 (1.77)
I51N/S63P/A101Q | ND ND 4.63 | 4.63 | 1 of 9 (2.94)
I34L/S63Q/V64W | ND ND ND | ND | 0 of 9
F27I/S35T | ND ND ND | ND | 0 of 9
Y32R/G33H/G61A | ND ND ND | ND | 3 of 9 (4.48)
S35W/T104V/F105L | ND 3.48 ND | 3.48 | 1 of 9 (2.93)
G26T/N30R/Y52S | 2.92 2.72 3.67 | 3.10 | 3 of 9 (4.06)
G33E/R57S/T104I | ND 1.97 ND | 1.97 | 1 of 9 (2.09)
V50W/K65P | ND ND ND | ND | 0 of 9
I34V/R57M/T58V | ND ND ND | ND | 1 of 9 (2.11)
T28Y/S53F/A102K | ND 3.34 2.90 | 3.12 | 0 of 9
G26P/S53H/S63P | 2.73 3.22 3.10 | 3.02 | 4 of 9 (4.65)
I51S | ND ND ND | ND | 0 of 9

4 of these entries, quoted again:

| changes | log10 Kd, replicates | mean, log10 nM | empty controls |
|---|---|---|---|
| Y52F/D54P | ND ND ND | ND | 0 of 9 |
| R56E/G61W | ND ND ND | ND | 1 of 9 (3.81) |
| G26P/S53H/S63P | 2.73 3.22 3.10 | 3.02 | 4 of 9 (4.65) |
| G26Q/R56F/G103Q | ND ND ND | ND | 2 of 9 (4.37) |

Reference: Engelhart et al. 2022, doi:10.1038/s41597-022-01779-4. File: FLAb, binding data.